Sampled rows, rich in hits. Any-hit rate of the full collection: about 1.3%.
SR-BI HDL uptake: inhibitors of mouse SR-BI mediated HDL lipid uptake. AID 488896. inhibition, % at 12.5 µM. ldlA[mSR-BI] CHO cells, DiI-HDL uptake fluorescence, 3 h. 320,000 tested, 0.96% active;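 active = mean replicate inhibition of at least 70% and a set share of replicates each scoring 70 or more; inconclusive = meets just one of the two criteria; inactive = fails both criteria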;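 note: 0% = median of neutral control wells and 100% = median of positive control wells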
Yeast UUG start: modulators of start codon recognition fidelity in yeast. S. cerevisiae UUG-firefly luciferase reporter, luminescence/redox ratio. activity score, % at 18.7 µM. 0.13% of 350,000 active. AID 602363;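 active = replicate mean at a twofold rise or more, about +100% in these data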;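 also: firefly luciferase made from a UUG start codon reports start codon fidelity; reporter light over untreated wells divided by growth signal over untreated wells; some hits fall short of that in this replicate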
GSIS activator: primary screen for activators of insulin secretion dependent on glucose, INS-1E cells, GLuc reporter luminescence. activation, % at 16.6 µM. 370,000 tested, 0.61% active. INS-1E GLuc reporter insulin secretion, 2-3 h. AID 743287;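 active = lowest replicate activation of at least 40%, so every replicate reaches that level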;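 note: 0% = median of neutral control wells and 100% = median of IBMX positive control wells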
SR-BI uptake up: SR-BI HDL lipid transfer activation | CHO ldlA[mSR-BI] cells, DiI-HDL uptake fluorescence, 3 h; 100 = double the neutral-control signal | activation, % at 12.5 µM | 320,000 tested, 0.096% active | AID 504775;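 active = mean replicate activation of at least 60% and every replicate at or above 60%; inconclusive = mean or all-replicate condition met, but not both; inactive = mean below 60% and not all replicates reaching 60%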;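 note: 0% = median plate neutral-control signal and 100% = twice that signal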
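Test system: SR-BI-overexpressing, LDLR-lacking CHO cells. Measured by: DiI fluorescence, bottom read. Medium: Ham's F12 with 0.5% BSA, HEPES 25 mM, pH 7.4. Timing: 3 h uptake period with compound, 37 °C.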
DiI quencher: DiI fluorescence quenching in cell-free counter-screen; AC50, µM (series often up to 35 µM), without a hit: top-dose activity change, negative = quenching; shares compounds with SR-BI HDL uptake; cell-free DiI-HDL fluorescence quenching, 30 min; 470 tested, 20% active; AID 540326;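 active = quenching, a falling signal, with AC50 below a set limit tied to the top valid dose, actives reach about 32 µM in these data; inconclusive = no clear call, values can overlap the other calls; inactive = rising signal, and the rest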
Numbers without * were called inactive; ? = inconclusive; . = not tested or not shown.

SMILES | SR-BI HDL uptake | Yeast UUG start | GSIS activator | SR-BI uptake up | others
O=C(C[C@H]1CC[C@H]2[C@@H](COC[C@H](O)CN2C(=O)Cc2ccccc2)O1)NC1CCC1 | . | -5.3 | 5.0 | .
CNC(=O)C[C@@H]1CC[C@H]2[C@@H](COC[C@H](O)CN2S(=O)(=O)c2ccccc2Cl)O1 | . | . | 8.1 | .
CCOc1ccc(/C=N/NC(=O)c2ccc(CSc3nc4ccccc4[nH]3)cc2)cc1 | 59.5 | . | -0.2 | -59.5
O=C(N/N=C/c1ccc(OC(F)F)cc1)c1ccc(CSc2nc3ccccc3[nH]2)cc1 | 81.7* | . | -0.2 | -81.7
CC=Cc1ccc2n(c1=O)C[C@H]1[C@H](CO)[C@@H](C(=O)NC3CCCCC3)N(C(=O)C3CC3)[C@@H]21 (mixture of isomers) | . | . | 4.6 | .
C[C@@H]1CN([C@@H](C)CO)C(=O)c2cc(C#CCc3ccccc3)cnc2O[C@@H]1CN(C)C(=O)C1CCC1 | . | -2.6 | 28.7 | .
C[C@@H]1CN([C@H](C)CO)C(=O)c2cc(C#CCc3ccccc3)cnc2O[C@H]1CN(C)C(=O)C1CCC1 | . | 11.6 | 54.0* | .
C[C@H]1CN([C@@H](C)CO)C(=O)c2cc(C#CCc3ccccc3)cnc2O[C@@H]1CN(C)C(=O)C1CC1 | . | -1.6 | 72.4* | .
C[C@@H]1CN([C@@H](C)CO)C(=O)c2cc(C#CCc3ccccc3)cnc2O[C@@H]1CN(C)C(=O)C1CC1 | . | -6.3 | 16.0 | .
CCC(=O)N1[C@H](CO)[C@@H](c2ccc(-c3ccccc3)cc2)[C@@H]1CN(C)C(C)=O | . | 11.1 | -2.9 | .
COc1ccc(CN(C)C[C@@H]2OCCCC[C@H](C)Oc3ccc(NC(=O)Nc4c(C)noc4C)cc3C(=O)N([C@@H](C)CO)C[C@@H]2C)cc1 | . | 6.5 | 18.7 | .
CCOC(=O)c1cccc(NC(=O)/C=C/c2cccc([N+](=O)[O-])c2)c1 | 72.8* | -1.1 | 4.8 | -72.8
COc1ccc(NC(=O)Nc2ccc3c(c2)[C@@H]2C[C@@H](CC(=O)NCc4ccccn4)O[C@@H](CO)[C@@H]2O3)cc1 | . | . | 14.0 | .
CCNc1nc(NCC)n2c(SCC(=O)N(CC)C3CCCCC3)nnc2n1 | 3.0 | . | 73.7* | -3.0
CC(C)(C)NC(=O)C[C@H]1C[C@H](C(=O)N2CCOCC2)[C@@]2(C)c3[nH]c4ccc(Cl)cc4c3CCN2C1=O | 6.5 | 4.6 | -9.1 | -6.5
CC(C)(C)NC(=O)CC1C[C@H](C(=O)N2CCOCC2)[C@@]2(C)c3[nH]c4ccccc4c3CCN2C1=O (stereo partly specified) | 77.4* | 11.7 | 2.8 | -77.4
CC(=O)c1cccc(NC(=O)Nc2csc3c2CCCC3)c1 | 75.2* | 0.0 | -0.9 | -75.2
CCc1nnc(NC(=O)CSc2ccc(-c3nc4ccccc4[nH]3)cn2)s1 | -24.1 | -26.4 | . | 24.1
Cc1nc(NC(=O)CSc2ccc(-c3nc4ccccc4[nH]3)cn2)sc1C | 21.7 | . | 50.9* | -21.7
Cc1ccc2nc(-c3ccc(SCC(=O)Nc4nnc(C)s4)nc3)[nH]c2c1 | 1.7 | . | 459.1* | -1.7
CCCn1c(SCC(=O)N2CCCC2=O)nc2ccccc2c1=O | -19.8 | -10.0 | 46.0* | 19.7
CC(=O)N1CC2(C1)[C@H](c1ccc(-c3ccccc3C)cc1)[C@@H](CO)N2C(C)=O | . | . | -1.1 | .
CNC[C@@H]1Oc2ccc(N(C)C)cc2CC(=O)N(C)C[C@H]1C | . | . | 4.7 | .
CCn1c(SCC(=O)Nc2ccc3c(c2)oc2ccccc23)nnc1-c1ccc(N)cc1 | 16.8 | -3.3 | 73.2* | -16.8
CCn1c(SCC(=O)c2ccc3c(c2)Cc2ccccc2-3)nnc1-c1ccc(N)cc1 | 76.6* | -21.5 | -29.4 | -76.6

Random excerpt: 2 records from the list, in no set order.
SMILES | SR-BI HDL uptake | Yeast UUG start | GSIS activator | SR-BI uptake up | others
O=C(N/N=C/c1ccc(OC(F)F)cc1)c1ccc(CSc2nc3ccccc3[nH]2)cc1 | 81.7* | . | -0.2 | -81.7
COc1ccc(NC(=O)Nc2ccc3c(c2)[C@@H]2C[C@@H](CC(=O)NCc4ccccn4)O[C@@H](CO)[C@@H]2O3)cc1 | . | . | 14.0 | .

Further results
SMILES | SR-BI HDL uptake | Yeast UUG start | GSIS activator | SR-BI uptake up | others
O=C(Cc1ccccc1)N[C@H]1CC[C@H](CC(=O)N2CCOCC2)O[C@@H]1CO | . | 21.2 | 16.4 | .
CC(C)(C)c1cc(C(=O)N/N=C/c2ccccn2)n[nH]1 | -320.4 | -0.8 | 1.6 | 320.4*
O=C(N/N=C/c1cc2c(cc1Br)OCO2)c1ccccn1 | . | -12.4 | -8.9 | .
CC(C)(C)c1cc(C(=O)N/N=C/c2cc3c(cc2Br)OCO3)n[nH]1 | 76.7* | . | -14.2 | -76.7
CC(C)(C)c1cc(C(=O)N/N=C/c2ccncc2)n[nH]1 | -18.0 | -11.3 | 9.2 | 18.0
C[C@@H]1CN([C@H](C)CO)C(=O)c2cc(C#Cc3ccccc3F)cnc2O[C@H]1CN(C)S(C)(=O)=O | . | -4.8 | -2.9 | .
C[C@@H]1CN([C@H](C)CO)C(=O)Cc2cc(NC(=O)Cn3cnnn3)ccc2O[C@@H]1CN(C)Cc1ccc(C(=O)O)cc1 | . | 2.4 | 12.2 | .
Cc1ccc(OCC(=O)N2CCN(c3nnc(-c4ccccc4)c4ccccc34)CC2)cc1 | ? | -1.6 | . | -72.5
CC(=O)N1CCN(c2nnc(-c3ccc(C)cc3)c3ccccc23)CC1 | 57.0 | . | 40.9* | -57.0
COc1ccc(/C=C/C(=O)OCC(=O)c2ccc[nH]2)cc1 | -3.7 | -6.4 | -0.1 | 3.7
COc1cc(/C=C/C(=O)OCC(=O)c2ccc[nH]2)cc(OC)c1OC | ? | 7.5 | 3.5 | -74.0 | DiI quencher=-1.8%
CCCNC(=O)N1C[C@H](C)[C@H](OC)CN(C)C(=O)c2ccc(NS(C)(=O)=O)cc2OC[C@H]1C | . | 2.2 | -7.9 | .
CSc1nccc(-c2sc(SC)c(C#N)c2-c2ccccc2)n1 | 84.2* | . | 3.2 | -84.2 | DiI quencher=-3.2%
C=CCN(CC=C)C(=O)COn1nnc2ccc(S(=O)(=O)N3CCOCC3)cc21 | 17.0 | -2.5 | 7.0 | -17.0 | DiI quencher=-4.1%
CN(C(=O)COC(=O)c1ccc(Cl)cc1N)C1CCCCC1 | 15.8 | . | 9.8 | -15.8
CN(C(=O)COC(=O)c1c[nH]c(=O)[nH]c1=O)C1CCCCC1 | 78.8* | -18.6 | . | -78.8 | DiI quencher=-1.3%
CN1c2ccc(-c3cccc(C#N)c3)cc2[C@@H]2[C@@H](CCN2C(=O)C2CC2)[C@@H]1CO | . | . | -21.6 | .
COc1ccc(N2CCN(C(=O)c3cc(=O)[nH]c4ccccc34)CC2)cc1 | 52.1 | . | 11.2 | -52.1 | DiI quencher=-6.7%
O=C(c1cc(=O)[nH]c2ccccc12)N1CCN(c2ccc([N+](=O)[O-])cc2)CC1 | . | -11.7 | 0.2 | .
CCC(C)C1/C=C\CC(NC(=O)OCC2c3ccccc3-c3ccccc32)CC(=O)N1Cc1ccccc1 (stereo unspecified) | 74.5* | -13.7 | . | -74.5 | DiI quencher=-2.4%
COc1ccc(C2/C=C\CC(NC(=O)OCC3c4ccccc4-c4ccccc43)CC(=O)N2Cc2ccccc2F)cc1 (stereo unspecified) | 28.9 | -9.0 | . | -28.9
Cc1ccc(OCc2cc(C(=O)N3CCCC(O)C3)no2)cn1 (stereo unspecified) | -3.1 | -12.7 | 1.2 | 3.1 | DiI quencher=-0.4%
O=C(Nc1ccccc1F)c1ccc2c(c1)CCN2S(=O)(=O)c1ccccc1 | 52.6 | -8.5 | -11.1 | -52.6 | DiI quencher=-0.6%
Cc1cccc(NC(=O)c2ccc3c(c2)CCN3S(C)(=O)=O)c1 | 38.9 | 1.2 | -0.5 | -38.9
CN(C(=O)c1ccc2c(c1)CCN2S(C)(=O)=O)c1ccccc1 | 20.0 | -9.8 | -6.4 | -20.0 | DiI quencher=-1.8%

By substructure: the entries above with bromine
SMILES | SR-BI HDL uptake | Yeast UUG start | GSIS activator | SR-BI uptake up | others
O=C(N/N=C/c1cc2c(cc1Br)OCO2)c1ccccn1 | . | -12.4 | -8.9 | .
CC(C)(C)c1cc(C(=O)N/N=C/c2cc3c(cc2Br)OCO3)n[nH]1 | 76.7* | . | -14.2 | -76.7

3 compounds already listed, arranged by number of heavy atoms, ascending:
SMILES | SR-BI HDL uptake | Yeast UUG start | GSIS activator | SR-BI uptake up | others
CN(C(=O)COC(=O)c1ccc(Cl)cc1N)C1CCCCC1 | 15.8 | . | 9.8 | -15.8
O=C(Nc1ccccc1F)c1ccc2c(c1)CCN2S(=O)(=O)c1ccccc1 | 52.6 | -8.5 | -11.1 | -52.6 | DiI quencher=-0.6%
COc1ccc(C2/C=C\CC(NC(=O)OCC3c4ccccc4-c4ccccc43)CC(=O)N2Cc2ccccc2F)cc1 (stereo unspecified) | 28.9 | -9.0 | . | -28.9

Compound activity: PubChem, Broad Institute
